Data on two compounds can be found in PubChem BioAssay AID588689 (Southern Research Specialized Biocontainment Screening …, 2011).

The chains behind the UniProt entries cited, without tags or fusion partners.
UniProt P29991, whole entry: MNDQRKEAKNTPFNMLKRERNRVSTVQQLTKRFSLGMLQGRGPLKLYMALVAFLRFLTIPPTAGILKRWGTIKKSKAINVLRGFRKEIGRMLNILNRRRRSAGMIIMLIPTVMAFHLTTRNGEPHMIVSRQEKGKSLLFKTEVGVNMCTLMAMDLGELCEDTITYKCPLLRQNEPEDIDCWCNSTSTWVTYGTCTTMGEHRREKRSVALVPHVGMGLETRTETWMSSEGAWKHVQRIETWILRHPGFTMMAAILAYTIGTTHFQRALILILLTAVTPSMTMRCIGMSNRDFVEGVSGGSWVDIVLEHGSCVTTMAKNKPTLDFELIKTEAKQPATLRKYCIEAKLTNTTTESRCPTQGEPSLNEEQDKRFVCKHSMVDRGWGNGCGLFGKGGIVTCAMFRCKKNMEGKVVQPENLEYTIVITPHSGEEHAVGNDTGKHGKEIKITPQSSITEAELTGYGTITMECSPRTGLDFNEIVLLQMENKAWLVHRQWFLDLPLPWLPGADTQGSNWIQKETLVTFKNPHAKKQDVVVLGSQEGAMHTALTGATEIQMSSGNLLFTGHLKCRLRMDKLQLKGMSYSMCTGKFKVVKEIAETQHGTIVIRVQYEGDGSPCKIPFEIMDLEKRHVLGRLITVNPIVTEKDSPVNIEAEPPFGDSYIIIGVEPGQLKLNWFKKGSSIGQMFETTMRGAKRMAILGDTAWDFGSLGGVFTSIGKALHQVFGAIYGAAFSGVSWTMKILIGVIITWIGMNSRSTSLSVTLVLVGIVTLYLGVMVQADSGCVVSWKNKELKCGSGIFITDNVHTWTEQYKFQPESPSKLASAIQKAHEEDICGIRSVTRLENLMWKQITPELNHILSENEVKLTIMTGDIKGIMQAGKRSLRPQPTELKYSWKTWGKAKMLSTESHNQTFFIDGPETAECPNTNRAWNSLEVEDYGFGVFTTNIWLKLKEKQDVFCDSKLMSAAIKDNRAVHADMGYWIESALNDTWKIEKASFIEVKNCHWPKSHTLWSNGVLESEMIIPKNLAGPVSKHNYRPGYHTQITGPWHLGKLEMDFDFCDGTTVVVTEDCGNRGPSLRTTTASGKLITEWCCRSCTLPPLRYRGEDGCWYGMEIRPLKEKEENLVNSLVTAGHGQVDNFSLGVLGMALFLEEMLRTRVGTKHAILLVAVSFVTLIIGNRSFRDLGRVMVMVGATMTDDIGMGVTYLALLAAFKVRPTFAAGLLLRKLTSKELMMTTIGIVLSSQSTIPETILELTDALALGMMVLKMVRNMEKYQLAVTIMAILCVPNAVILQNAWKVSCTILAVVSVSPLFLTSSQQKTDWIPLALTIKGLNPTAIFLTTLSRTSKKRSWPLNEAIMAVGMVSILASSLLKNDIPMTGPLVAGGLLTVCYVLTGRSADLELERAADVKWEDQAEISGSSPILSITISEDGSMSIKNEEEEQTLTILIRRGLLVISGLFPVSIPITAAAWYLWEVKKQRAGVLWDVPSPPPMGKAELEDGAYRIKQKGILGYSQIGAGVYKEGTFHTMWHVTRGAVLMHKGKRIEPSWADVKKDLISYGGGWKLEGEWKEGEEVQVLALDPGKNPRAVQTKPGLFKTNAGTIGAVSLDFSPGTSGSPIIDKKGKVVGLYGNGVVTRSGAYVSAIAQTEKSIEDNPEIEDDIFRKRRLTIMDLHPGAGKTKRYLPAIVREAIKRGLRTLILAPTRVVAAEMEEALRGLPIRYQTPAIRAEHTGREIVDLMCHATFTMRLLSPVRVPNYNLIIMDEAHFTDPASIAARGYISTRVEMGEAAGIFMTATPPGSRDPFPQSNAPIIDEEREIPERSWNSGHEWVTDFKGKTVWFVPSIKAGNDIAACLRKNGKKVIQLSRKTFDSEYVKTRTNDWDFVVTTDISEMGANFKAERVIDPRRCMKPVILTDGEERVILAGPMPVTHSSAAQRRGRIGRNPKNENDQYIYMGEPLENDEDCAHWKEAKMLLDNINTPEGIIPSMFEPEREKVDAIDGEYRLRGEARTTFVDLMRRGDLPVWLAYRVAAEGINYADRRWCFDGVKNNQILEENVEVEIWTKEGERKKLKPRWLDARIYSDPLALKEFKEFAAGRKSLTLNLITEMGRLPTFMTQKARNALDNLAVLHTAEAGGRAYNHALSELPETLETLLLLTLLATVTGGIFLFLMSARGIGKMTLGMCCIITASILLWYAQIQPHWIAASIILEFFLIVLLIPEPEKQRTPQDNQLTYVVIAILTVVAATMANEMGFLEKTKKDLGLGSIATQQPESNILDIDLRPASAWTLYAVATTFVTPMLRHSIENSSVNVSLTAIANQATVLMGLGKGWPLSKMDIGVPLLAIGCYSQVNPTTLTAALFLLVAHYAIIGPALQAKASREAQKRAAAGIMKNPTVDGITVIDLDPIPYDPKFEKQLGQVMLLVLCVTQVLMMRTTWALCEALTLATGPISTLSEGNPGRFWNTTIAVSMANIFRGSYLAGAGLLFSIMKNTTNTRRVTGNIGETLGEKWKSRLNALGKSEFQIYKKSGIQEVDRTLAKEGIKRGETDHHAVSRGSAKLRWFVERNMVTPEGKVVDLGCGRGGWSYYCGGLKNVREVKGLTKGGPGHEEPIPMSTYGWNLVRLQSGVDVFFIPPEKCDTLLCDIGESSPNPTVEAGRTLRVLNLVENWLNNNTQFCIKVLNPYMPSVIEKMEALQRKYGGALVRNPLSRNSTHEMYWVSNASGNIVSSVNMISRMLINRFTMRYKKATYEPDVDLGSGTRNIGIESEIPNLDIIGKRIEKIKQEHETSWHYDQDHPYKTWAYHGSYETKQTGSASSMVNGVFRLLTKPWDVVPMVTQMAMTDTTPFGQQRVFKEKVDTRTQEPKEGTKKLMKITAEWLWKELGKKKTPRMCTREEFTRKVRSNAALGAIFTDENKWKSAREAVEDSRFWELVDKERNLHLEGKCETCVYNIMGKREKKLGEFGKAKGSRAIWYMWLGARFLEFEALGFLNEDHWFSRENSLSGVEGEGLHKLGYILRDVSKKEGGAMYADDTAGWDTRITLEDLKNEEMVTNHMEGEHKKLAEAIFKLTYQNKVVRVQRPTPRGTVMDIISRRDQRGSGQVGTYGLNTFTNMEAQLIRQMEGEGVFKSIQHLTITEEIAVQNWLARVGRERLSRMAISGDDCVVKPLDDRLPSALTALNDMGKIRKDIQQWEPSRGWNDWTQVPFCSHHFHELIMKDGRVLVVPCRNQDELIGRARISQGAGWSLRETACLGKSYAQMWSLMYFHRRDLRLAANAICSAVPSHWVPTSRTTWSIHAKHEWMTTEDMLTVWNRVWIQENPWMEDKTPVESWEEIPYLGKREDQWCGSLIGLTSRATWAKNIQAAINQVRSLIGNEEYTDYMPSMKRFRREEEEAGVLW

For orientation: inhibition means the relative decrease from the control value, in per cent.

The entries are a selection whose mix differs from that of the whole data set. Results with a measured potency or affinity are listed apart. Active and inactive are the calls of the source. Rule as the data show it: inconclusive = inhibition above about 29% without an active follow-up result; inactive = below that.

This test addresses Genome polyprotein (Dengue virus type 2 (strain 16681-PDK53)) (UniProt P29991). The test is described as follows: Dengue-2 NS5 methyltransferase inhibitors, primary screen, biochemical, confirmation dose response (AID 588689). Particulars: Dengue-2 NS5 methyltransferase capping enzyme assay, at 25 µM, hits give high values.
For the compound `CCC(=O)N(c1ccccc1)C1(COC)CCN(CCc2cccs2)CC1`, the inhibition was inactive: 4.1%.
Consider `CCC(=O)N(c1ccccc1)C1(COC)CCN(CCn2nnn(CC)c2=O)CC1`, for which the inhibition is inactive: 1.37%.
